This assay addresses Monoglyceride lipase (Mus musculus, UniProt O35678). The assay can be described thus: Inhibition of MAGL in mouse brain membrane. Type of assay: cell membranes. Put shortly:
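Mouse brain membrane fraction (Dounce homogenized in PBS pH 7.5, 1,400 × g debris spin, 64,000 × g 45 min pellet, resuspended) at 1 mg/ml in PBS. Inhibitor preincubated 30 min at 37°C, then FP-rhodamine 1 μM final for 30 min at 25°C. SDS-PAGE with in-gel fluorescence scanning. IC50 from fitted integrated band intensities, mean of at least triplicates.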

The chains behind the UniProt entries cited, without tags or fusion partners.
UniProt O35678, whole entry: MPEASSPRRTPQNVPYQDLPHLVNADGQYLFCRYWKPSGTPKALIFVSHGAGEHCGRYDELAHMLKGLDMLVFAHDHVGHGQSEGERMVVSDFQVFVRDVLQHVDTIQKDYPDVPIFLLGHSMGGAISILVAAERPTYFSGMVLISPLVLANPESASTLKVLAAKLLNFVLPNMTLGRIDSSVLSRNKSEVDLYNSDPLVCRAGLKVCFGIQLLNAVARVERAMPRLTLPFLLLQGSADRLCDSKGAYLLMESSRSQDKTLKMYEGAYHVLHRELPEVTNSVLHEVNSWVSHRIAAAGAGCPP

The molecule `O=C(Oc1ccc([N+](=O)[O-])cc1)N1CCN(Cc2cccc(Oc3ccccc3)c2)CC1` yielded an IC50 of 19 nM.

These data come from ChEMBL document CHEMBL1156908, “Characterization of tunable piperidine and piperazine carbamates as inhibitors of endocannabinoid hydrolases” (J Med Chem, 2010).
